Measurements taken from patent publication US4460605A, “2-[2'-Hydroxy-3'-(1,1-dimethylpropylamino)-propoxy ]-β-phenylpropiophenone, its physiologically acceptable acid addition salts, and pharmaceutical compositions” (Helopharm W. Petrik & Co., priority 1981, dated 1984).

Key:
[1] = system: CHCl3-adrenalin-model arrhythmia; assay type: in vivo, dog; conditions: vs propafenone
Experimental: The antiarrhythmic effect of the compound of formula I was tested in dogs according to the method of Hapke and Prigge, Arzneim.-Forsch. (Drug Res.), loc. cit. A model arrhythmia which was essentially characterized by ventricular extrasystoles at absolute arrhythmia was produced by infusion of chloroform and adrenalin (epinephrine). At the onset of these rhythm disorders the inventive compound was injected intravenously as aqueous solution of the hydrochloride.
. […] (Drug Res.), loc. cit.

in vivo = conditions: rat
circulation parameters = assay: Circulation parameters in dogs (method of Hapke and Prigge); conditions: vs propafenone

Row | SMILES | antiarrhythmic dose relative to necessary dose of propafenone ([1]; intravenous) | effect in heart rhythm disorders relative to propafenone [1] | LD50 (in vivo; iv) [mg/kg] | LD50 (in vivo; po) [mg/kg] | hemodynamic activity relative to propafenone (circulation parameters)
1 | CCC(C)(C)NCC(O)COc1ccccc1C(=O)CCc1ccccc1 (stereo not drawn) [diprafenone, 2-[2'-hydroxy-3'-(1,1-dimethylpropylamino)-propoxy]-β-phenylpropiophenone] | twentieth part | – | – | – | –
2 | CCC(C)(C)NCC(O)COc1ccccc1C(=O)CCc1ccccc1 (stereo not drawn) [diprafenone-HCl, 2-[2'-hydroxy-3'-(1,1-dimethylpropylamino)-propoxy]-β-phenylpropiophenone-hydrochloride] | – | approximately 20 times | 16.9 | 1080 | approximately the same hemodynamic activity

Where a name gives a salt, the structure may show the parent alone.
